Here are results for two compounds from patent US12403104B2, “Compounds and methods of promoting myelination” (Case Western Reserve University, priority 2016, dated 2025).

The series relates to OPCs (OPC-1 derivation). The series can be described thus: High-throughput screening of 3,000 bioactive small molecules for MBP+ oligodendrocyte formation. As to conditions: 2 μM, 72 h.

With `Clc1ccc(C(Cn2ccnc2)OCc2c(Cl)cccc2Cl)c(Cl)c1` (centres unmarked) [Isoconazole nitrate], the “cell viability (% relative to DMSO)” value turned out to be 106.98%.

With `Cl.Clc1ccc(N2CCN(Cc3c[nH]c4ncccc34)CC2)cc1` [L-745,870 hydrochloride], the “cell viability (% relative to DMSO)” value is recorded as 92.82%.
